Measured values reported in US9242996B2 (Novartis AG, priority 2013, dated 2016).

The chains behind the UniProt entries cited, without tags or fusion partners.
UniProt P28482, whole entry: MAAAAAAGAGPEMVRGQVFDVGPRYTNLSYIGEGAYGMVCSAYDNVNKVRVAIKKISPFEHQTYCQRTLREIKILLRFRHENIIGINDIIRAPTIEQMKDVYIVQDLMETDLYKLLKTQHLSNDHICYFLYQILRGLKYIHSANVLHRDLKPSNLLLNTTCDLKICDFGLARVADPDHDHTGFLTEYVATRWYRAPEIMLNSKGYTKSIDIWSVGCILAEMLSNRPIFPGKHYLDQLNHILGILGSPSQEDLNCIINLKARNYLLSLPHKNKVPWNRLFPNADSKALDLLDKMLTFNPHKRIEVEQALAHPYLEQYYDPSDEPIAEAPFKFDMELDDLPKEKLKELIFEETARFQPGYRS

Each compound was assayed against activated ERK2 (Homo sapiens (Human), UniProt P28482) (assay: Activated ERK2 (20 pM) Kinase Assay (AlphaScreen, ERKtide phosphorylation)). Details: 0.02 nM ERK2, 400 nM ERKtide peptide, 35 μM ATP, 30 min preincubation.
Type: biochemical
Method: Activated ERK2 (20 pM) Kinase Assay:
Compound potency against activated ERK2 was determined using a kinase assay that measures ERK2-catalyzed phosphorylation of biotinylated ERKtide peptide substrate ([Biotin]-AH[…]-[NH2], the peptide sequence derived from EGF receptor: SEQ ID NO:1). The assay was carried out in 20 mM HEPES [pH 7.5], 5 mM MgCl2, 1 mM DTT, 0.01% Tween-20, 0.05% BSA using 0.02 nM ERK2, 400 nM ERKtide peptide and 35 μM ATP (all concentrations are final in the reaction) in a total volume of 10.25 μL. […] Compound dilution series were prepared in 100% DMSO. ERK2 was preincubated with compounds for 30 minutes at ambient temperature. Reaction was initiated by addition of a substrate cocktail of ERKtide peptide and ATP and was allowed to proceed for 4 hours at ambient temperature. Reaction was terminated by addition of 10 μL of a 2× stop buffer consisting of 100 mM Tris-Cl [pH 7.5], 25 mM EDTA, 0.01% Tween 20, 20 μg/mL of AlphaScreen Protein A Acceptor Beads, 20 μg/mL of Streptavidin Donor Beads (PerkinElmer, Waltham, Mass.), and 1:1000 dilution phospho-EGF Receptor (Thr669) antibody (Cat #8808, Cell Signaling Technology, Danvers, Mass.). Terminated reactions were read, after overnight incubation in the dark, on an EnVision Multilabel Plate Reader (PerkinElmer, Waltham, Mass.), with excitation and emission wavelengths set to 680 nm and 570 nm, respectively. IC50 values were determined using a four-parameter fit.
With `Nc1ncc([C@H]2CCC(=O)NC2)nc1-c1ccc(C(=O)N[C@H](CO)c2cc(F)cc(I)c2)c(F)c1` [Example 478b, 4-(3-amino-6-((S)-6-oxopiperidin-3-yl)pyrazin-2-yl)-2-fluoro-N—((S)-1-(3-fluoro-5-iodophenyl)-2-hydroxyethyl)benzamide] the IC50 was 39 pM. `Cn1nncc1-c1cnc(N)c(-c2ccc(C(=O)N[C@H](CO)c3cc(F)cc(C(F)F)c3)c(F)c2)c1` [Example 272, (S)-4-(2-amino-5-(1-methyl-1H-1,2,3-triazol-5-yl)pyridin-3-yl)-N-(1-(3-(difluoromethyl)-5-fluorophenyl)-2-hydroxyethyl)-2-fluorobenzamide] gave an IC50 of 61.9 pM. Compound `Nc1ncc([C@H]2CC[C@@H](O)CC2)nc1-c1ccc(C(=O)N[C@H](CO)c2cc(F)cc(Br)c2)c(F)c1` [Example 437, 4-(3-amino-6-((1s,4R)-4-hydroxy-cyclohexyl)pyrazin-2-yl)-N-((S)-1-(3-bromo-5-fluorophenyl)-2-hydroxyethyl)-2-fluorobenzamide] has an IC50 of 540 pM. For `Nc1ncc(C2CCC(CO)CC2)nc1-c1ccc(C(=O)N[C@H](CO)c2cc(F)cc(Br)c2)c(F)c1` (single isomer, unassigned) [Example 446], the IC50 was 46.4 pM. `Nc1ncc([C@@H]2CC[C@@H](O)C2)nc1-c1ccc(C(=O)N[C@H](CO)c2cc(F)cc(I)c2)c(F)c1` [Example 453, 4-(3-amino-6-((1R,3R)-3-hydroxycyclopentyl)pyrazin-2-yl)-2-fluoro-N—((S)-1-(3-fluoro-5-iodophenyl)-2-hydroxyethyl)benzamide] was tested, and the IC50 was 68.4 pM. With `Nc1ncc(C2CCC(CO)CC2)nc1-c1ccc(C(=O)N[C@H](CO)c2cc(F)cc(Br)c2)c(F)c1` (single isomer, unassigned) [Example 447] the IC50 was 163 pM. In the case of `CNC[C@@H](NC(=O)c1ccc(-c2nc([C@@H]3CCC[C@H](O)C3)cnc2N)cc1F)c1cc(F)cc(Br)c1` (single isomer, unassigned) [Example 363], the IC50 is reported as 55.7 pM. `Nc1ncc([C@H]2CC[C@H](O)CC2)nc1-c1ccc(C(=O)N[C@H](CO)c2cc(F)cc(Br)c2)c(F)c1` [Example 175, 4-(3-amino-6-((1r,4S)-4-hydroxycyclohexyl)pyrazin-2-yl)-N—((S)-1-(3-bromo-5-fluorophenyl)-2-hydroxyethyl)-2-fluorobenzamide] was tested, and the IC50 was 28.5 pM. `CC(=O)N[C@H]1CC[C@@H](c2cnc(N)c(-c3ccc(C(=O)N[C@H](CO)c4cccc(Cl)c4)c(F)c3)n2)CC1` [Example 432, 4-(6-((1s,4R)-4-acetamido-cyclohexyl)-3-aminopyrazin-2-yl)-N-((S)-1-(3-chlorophenyl)-2-hydroxyethyl)-2-fluorobenzamide] gave an IC50 of 1110 pM. `Nc1ncc([C@H]2CC[C@H](O)CC2)nc1-c1ccc(C(=O)N[C@H](CO)c2cccc(C(F)F)c2)c(F)c1` [Example 339, 4-(3-amino-6-((1r,4S)-4-hydroxy-cyclohexyl)pyrazin-2-yl)-N-((S)-1-(3-(difluoromethyl)phenyl)-2-hydroxyethyl)-2-fluorobenzamide] gave an IC50 of 105 pM. With `[N-]=[N+]=NC[C@@H](NC(=O)c1ccc(-c2nc([C@H]3CC[C@H](O)CC3)cnc2N)cc1F)c1cccc(Cl)c1` [Example 402, 4-(3-amino-6-((1r,4S)-4-hydroxy-cyclohexyl)pyrazin-2-yl)-N-((S)-2-azido-1-(3-chlorophenyl)ethyl)-2-fluorobenzamide] the IC50 was 436 pM. Compound `COC(=O)N[C@H]1CC[C@@H](c2cnc(N)c(-c3ccc(C(=O)N[C@H](CO)c4cccc(Cl)c4)c(F)c3)n2)CC1` [Example 434, methyl ((1R,4s)-4-(5-amino-6-(4-(((S)-1-(3-chlorophenyl)-2-hydroxyethyl)carbamoyl)-3-fluorophenyl)pyrazin-2-yl)cyclohexyl) carbamate] has an IC50 of 1570 pM. `Nc1ncc(C2CCC(CO)CC2)nc1-c1ccc(C(=O)N[C@H](CO)c2cccc(Cl)c2)c(F)c1` (single isomer, unassigned) [Example 445] was tested, and the IC50 was 531 pM. With `CNC[C@@H](NC(=O)c1ccc(-c2nc(C3CCCC(O)C3)cnc2N)cc1F)c1cccc(Cl)c1` (single isomer, unassigned) [Example 364] the IC50 was 205 pM. `Nc1ncc(C2CCOCC2)nc1-c1ccc(C(=O)N[C@H](CO)c2ccc(F)c(Cl)c2)c(F)c1` [Example 55, (S)-4-(3-amino-6-(tetrahydro-2H-pyran-4-yl)pyrazin-2-yl)-N-(1-(3-chloro-4-fluorophenyl)-2-hydroxyethyl)-2-fluorobenzamide] gave an IC50 of 139 pM. `CNC[C@@H](NC(=O)c1ccc(-c2nc(C3CCCC(O)C3)cnc2N)cc1F)c1cccc(Cl)c1` (single isomer, unassigned) [Example 366] was tested, and the IC50 was 127 pM. `Nc1ncc(C2CCC(=O)CC2)nc1-c1ccc(C(=O)N[C@H](CO)c2cc(F)cc(Br)c2)c(F)c1` [Example 397, (S)-4-(3-amino-6-(4-oxocyclohexyl)pyrazin-2-yl)-N-(1-(3-bromo-5-fluorophenyl)-2-hydroxyethyl)-2-fluorobenzamide] showed an IC50 of 36 pM. With `Cc1nn(C)c(C)c1-c1cnc(N)c(-c2ccc(C(=O)N[C@H](CN)c3cccc(Cl)c3)c(F)c2)c1` [Example 250, (S)-N-(2-amino-1-(3-chlorophenyl)ethyl)-4-(2-amino-5-(1,3,5-trimethyl-1H-pyrazol-4-yl)pyridin-3-yl)-2-fluorobenzamide] the IC50 was 36.4 pM. In the case of `CNC[C@@H](NC(=O)c1ccc(-c2nc([C@H]3CCC[C@@H](O)C3)cnc2N)cc1F)c1cc(F)cc(Br)c1` (single isomer, unassigned) [Example 362], the IC50 is reported as 29.1 pM. `NC[C@@H](NC(=O)c1ccc(-c2nc([C@@H]3CC[C@@H](O)[C@@H](F)C3)cnc2N)cc1F)c1cc(F)cc(Br)c1` [Example 353, N-((S)-2-amino-1-(3-bromo-5-fluorophenyl)ethyl)-4-(3-amino-6-((1R,3S,4R)-3-fluoro-4-hydroxy-cyclohexyl)pyrazin-2-yl)-2-fluorobenzamide] showed an IC50 of 10.3 pM. With `Cc1c(-c2cnc(N)c(-c3ccc(C(=O)N[C@H](CN)c4cccc(Cl)c4)c(F)c3)c2)cnn1C` [Example 248, (S)-N-(2-amino-1-(3-chlorophenyl)ethyl)-4-(2-amino-5-(1,5-dimethyl-1H-pyrazol-4-yl)pyridin-3-yl)-2-fluorobenzamide] the IC50 was 36.4 pM. With `NC[C@@H](NC(=O)c1ccc(-c2nc([C@H]3CC[C@H](O)CC3)cnc2N)cc1F)c1cccc(Cl)c1` [Example 392, N-((S)-2-amino-1-(3-chlorophenyl)ethyl)-4-(3-amino-6-((1r,4S)-4-hydroxy-cyclohexyl)pyrazin-2-yl)-2-fluorobenzamide] the IC50 was 45.2 pM. Work on `CNC[C@@H](NC(=O)c1ccc(-c2nc(C3CCCC(O)C3)cnc2N)cc1F)c1cccc(Cl)c1` (single isomer, unassigned) [Example 369] yielded an IC50 of 213 pM. With `Nc1ncc(C2CCC(CO)CC2)nc1-c1ccc(C(=O)N[C@H](CO)c2cccc(Cl)c2)c(F)c1` (single isomer, unassigned) [Example 444] the IC50 was 215 pM. `[N-]=[N+]=NC[C@@H](NC(=O)c1ccc(-c2nc([C@H]3CC[C@@H](O)CC3)cnc2N)cc1F)c1cccc(Cl)c1` [Example 403, 4-(3-amino-6-((1s,4R)-4-hydroxy-cyclohexyl)pyrazin-2-yl)-N-((S)-2-azido-1-(3-chlorophenyl)ethyl)-2-fluorobenzamide] showed an IC50 of 5810 pM.
